This note sets out measurements from patent publication US7211395 (dated 2007).

In experiment [1] the target is T1, human serum albumin (HSA) (human, UniProt P02768). The experiment in a line: FP, pH 6.2, no NaCl.
The target of experiment [2] is T1, human serum albumin (HSA). The experiment in a line: FP, pH 7.4, 0.14 M NaCl.
Experiment [3] concerns the target T1, human serum albumin (HSA). The experiment in a line: FP, pH 6.2, 0.14 M NaCl.
Experiment [4] has as its target T1, human serum albumin (HSA). The experiment in a line: FP, pH 7.4, 0.14 M NaCl, 0.1% caprylate.
Experiment [5] addresses T1, human serum albumin (HSA). In words: FP.
The target in experiment [6] is T1, human serum albumin (HSA). In words: FP, PBS.

Regarding AEGTGSFRNCEPWMLRFGCNPRAPEGGGK (disulfide cyclic, N-acetyl, C-amide, fluorescein on Lys) [DX-238], the dissociation constant Kd in experiment [1] amounted to 4.8 µM; in experiment [2] it was 79 µM; in experiment [3] it was 61 µM; in experiment [4], 110 µM.
Turning to AEGTGDFWFCDRIAWYPQHLCEFLGGGK (disulfide cyclic, N-acetyl, C-amide) [DX-236 truncation SEQ 41], binding in experiment [5] was characterised by a dissociation constant (Kd) of 9.9 µM.
On to GDNRECVTMWPFEQIFCPWPDPGGGK (disulfide cyclic, N-acetyl, C-amide, fluorescein) [DX-999], for which the Kd in experiment [6] amounted to 12 µM.
In experiment [5], CDRIAWYPQHLCGGGK (disulfide cyclic, N-acetyl, C-amide) [DX-236 truncation SEQ 43] returned a Kd of 16 µM.

In general, Kd refers to the constant that tells how readily two partners part at equilibrium. Low readings indicate a tighter complex, high ones a looser complex.
